# Source: article PMC3765993, “The duration of sleep promoting efficacy by dual orexin receptor antagonists is dependent upon receptor occupancy threshold” (BMC Neuroscience, 2013)
# Tested on: OX2R
# Type: in vivo, dog
# Conditions: dogs; calculated from rat occupancy values normalized for unbound plasma values
smiles,measurement,value
"Cc1ccc(-n2nccn2)c(C(=O)N2CCN(c3nc4cc(Cl)ccc4o3)CC[C@H]2C)c1 [Suvorexant, [(7R)-4-(5-chloro-1,3-benzoxazol-2-yl)-7-methyl-1,4-diazepan-1-yl][5-methyl-2-(2H-1,2,3-triazol-2-yl)phenyl]methanone]",OX2R occupancy corresponding to plasma exposure of 0.342 μM,65.7%
